Measured affinities in a library of Ab-91 heavy chain variants

Source: Engelhart et al. 2022 (doi:10.1038/s41597-022-01779-4), MIT Lincoln Laboratory and A-Alpha Bio; data file from the FLAb repository.

Antigen: PDVDLGDISGINAS, a 14-residue peptide of the SARS-CoV-2 spike HR2 region.

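The starting antibody came from a phage panning campaign against this peptide. Variants in AAYL51 differ from the parent at up to three CDR positions; double and triple changes were sampled at random. In AlphaSeq, yeast of one mating type display the scFv and yeast of the other type display the target. Binding brings cells together so that they mate, and sequencing counts the barcode pairs among the diploids. A regression on co-assayed BCL2-family reference pairs converts the normalised counts of each replicate to an apparent Kd. Each pool was mated in three replicate cultures.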

Each scFv is VL, three GGGGS repeats, VH, as in the parent Ab-91, and differs from it in the CDRs of the heavy chain only.
VL: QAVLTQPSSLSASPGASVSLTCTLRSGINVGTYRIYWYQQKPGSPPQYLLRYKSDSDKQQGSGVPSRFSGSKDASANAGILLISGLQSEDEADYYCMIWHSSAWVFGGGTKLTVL
VH: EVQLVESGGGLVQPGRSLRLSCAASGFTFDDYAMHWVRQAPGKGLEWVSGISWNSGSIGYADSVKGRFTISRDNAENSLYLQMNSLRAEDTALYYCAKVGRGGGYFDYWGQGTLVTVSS

Each variant is given by its three heavy chain CDRs, as the data file delimits them; those of the parent are GFTFDDYAMH, GISWNSGSIGYADSVK, VGRGGGYFDY.
Affinities are written as log10 Kd with Kd in nM; a lower number is a better binder.
Replicates are averaged; those with no signal do not enter the mean.
Where no diploid with the target was found in that replicate, the entry reads "nd": below detection, most likely a poor binder, though not proof of it.
In this assay the parent's reference entry averaged 1.86; its copy inside this library read 0.88.
Background: pairings of library AAYL51 with three empty control strains gave a value in 21% of cases (median 4.54, 5th percentile 3.26). Values in that range, when seen in few replicates, are hard to tell from nonspecific mating.

replicates, log10 nM	mean log10 Kd (nM)	CDR-H1	CDR-H2	CDR-H3
5.42 / 4.85 / 5.49	5.25	GFTFDDYAMH	GISWNSGSIGYHDSVK	VYRGGGYFDY
4.47 / 3.89 / 4.43	4.26	GFTFDDYAMH	GISLNSGSIGYADSVK	VGRGGIYFDD
4.50 / 4.13 / 4.33	4.32	GFYFDDYAMH	GISWNSGSIGYADSVK	VGRDGWYFDY
5.15 / 5.88 / nd	5.52	GFYQDDYAMH	GISWNSGSIGYAPSVK	VGRGGGYFDY
4.98 / nd / nd	4.98	GFTIDDYAMH	GISWNSGSGGYADSVK	VGRGGPYFDY
2.97 / 2.57 / 2.49	2.68	GFTFDDYAMH	GISWNSGSIGYATHVK	VGRGGGYFGY
2.20 / 2.12 / 1.83	2.05	GFTFDDYAMH	GISGNSGSIGYADSTK	VGRGGGAFDY
4.45 / 6.00 / nd	5.22	GFTFDDWAMH	GISWNSGSIGYADSVM	EGRGGGYFDY
3.73 / 3.61 / 3.68	3.67	GFTFDDYAMH	GISWNPGSNGYADSVK	VGRGGGYFDH
5.29 / 4.08 / nd	4.68	GFTFDDYAMH	GISWNSGSIGYADQWK	GGRGGGYFDY
4.88 / nd / nd	4.88	GFTFDDYAMY	GISWNSGSIGEADSVK	VGRGYGYFDY
nd / nd / nd	nd	GFTFDDYRMH	GISWNSGSDGYADSVK	VGRGGGYFCY
nd / nd / nd	nd	GFTFDDYAMH	GISWNSGSIGYAWSTK	VGRGGGYMDY
nd / 4.66 / 5.67	5.16	GFTFDDYAMH	GISWNSGSIGYYDSVK	VGRHGGYFDY
nd / nd / nd	nd	GFTFDDYAKA	GISWNSGSIDYADSVK	VGRGGGYFDY
nd / nd / nd	nd	GFTFDDYAVH	GISWNSGSIGYADSVK	VGRGGQYFDY
4.08 / 4.48 / 3.97	4.18	GFIFDDYAMH	GISWNSGSIGYADMVK	VIRGGGYFDY
5.86 / nd / 4.77	5.31	DFTFDDYAMH	GISWNSGSSGVADSVK	VGRGGGYFDY
3.78 / 4.26 / 3.86	3.97	GFTFMDYAMH	GISWNVGSIGYADSVK	VGRGGGFFDY
nd / 4.42 / nd	4.42	GFTFDDYAMH	GPSWNSGSIGYTDSVK	VGRGMGYFDY
nd / nd / nd	nd	GFTFDDYAMH	GISWNSGSIFYADCVK	VGRGGGYFSY
3.78 / nd / nd	3.78	GRTFEDYAMH	GISWNSGSIGYADSVK	VGRGGKYFDY
nd / nd / nd	nd	GFTFDDWAMH	GISWNSGSFGYADSVK	VGRGGGYPDY
nd / 4.18 / nd	4.18	GFTFDDYAQH	GLSWNSGSIGYADSVK	VGRGGGYFKY
nd / nd / nd	nd	GFTKDDYAMH	GISWNSGSIGYADSVK	VGRGGGYFAY
3.14 / 4.52 / nd	3.83	GFTFDDYAMH	GISWNSGSIGYADSDK	VGRGGQYFDY
nd / nd / nd	nd	GFTFIDYAMH	GISWNTGSIGQADSVK	VGRGGGYFDY
nd / nd / nd	nd	GFTFDDYAMH	GISPNSGSIGYADSVK	NGRGGGYFLY
nd / nd / nd	nd	GFTFDDYRMH	GISWNSGSIGYADSVK	VQRGHGYFDY
6.34 / nd / nd	6.34	GFTFDDYAMH	GISWNIGSICYADSVK	VMRGGGYFDY
4.53 / 4.86 / 5.29	4.89	GFTFDDYAMH	GGSWNVGSIGYADSVV	VGRGGGYFDY
4.38 / 5.66 / nd	5.02	GFTFDDYAMH	GISWNSGSIGCADSVK	AGRGGGYFDY
nd / nd / 3.68	3.68	GFTFDDYADH	GISWNSGSIGKADPVK	VGRGGGYFDY
nd / nd / nd	nd	GFTFDDYAMH	GISMNSGSIGYQDSTK	VGRGGGYFDY
6.11 / nd / nd	6.11	GFTFDDYAMH	GISWNSGSIGYADSVK	VGLVTGYFDY
4.00 / nd / nd	4.00	GFTFDDYAMH	GISWNSGSIGYADSVK	RGRGGGYWDV
nd / nd / nd	nd	QNTFDDYAMH	DISWNSGSIGYADSVK	VGRGGGYFDY

The last 3 entries again:

| CDR-H1 | CDR-H2 | CDR-H3 | replicates, log10 nM | mean log10 Kd (nM) |
|---|---|---|---|---|
| GFTFDDYAMH | GISWNSGSIGYADSVK | VGLVTGYFDY | 6.11 / nd / nd | 6.11 |
| GFTFDDYAMH | GISWNSGSIGYADSVK | RGRGGGYWDV | 4.00 / nd / nd | 4.00 |
| QNTFDDYAMH | DISWNSGSIGYADSVK | VGRGGGYFDY | nd / nd / nd | nd |